In one experiment the target is Muscarinic M1 (Rattus norvegicus, UniProt P08482). Nature of the experiment: Competitive radioligand binding assay, muscarinic M1.
The target of experiment [1] is Serotonin 5-HT2B (Human recombinant) (Homo sapiens, UniProt P41595). Nature of the experiment: Competitive radioligand binding assay, serotonin 5-HT2B.
Experiment [2] addresses Serotonin 5-HT2C (Human recombinant) (Homo sapiens, UniProt P28335). The experiment in a line: Competitive radioligand binding assay, serotonin 5-HT2C.

Sequences of proteins named here, by UniProt entry; tags and fusion partners are left off. A change or cut given only in a name is not applied to a line headed by its entry. Residues count along the entry.
UniProt P08482: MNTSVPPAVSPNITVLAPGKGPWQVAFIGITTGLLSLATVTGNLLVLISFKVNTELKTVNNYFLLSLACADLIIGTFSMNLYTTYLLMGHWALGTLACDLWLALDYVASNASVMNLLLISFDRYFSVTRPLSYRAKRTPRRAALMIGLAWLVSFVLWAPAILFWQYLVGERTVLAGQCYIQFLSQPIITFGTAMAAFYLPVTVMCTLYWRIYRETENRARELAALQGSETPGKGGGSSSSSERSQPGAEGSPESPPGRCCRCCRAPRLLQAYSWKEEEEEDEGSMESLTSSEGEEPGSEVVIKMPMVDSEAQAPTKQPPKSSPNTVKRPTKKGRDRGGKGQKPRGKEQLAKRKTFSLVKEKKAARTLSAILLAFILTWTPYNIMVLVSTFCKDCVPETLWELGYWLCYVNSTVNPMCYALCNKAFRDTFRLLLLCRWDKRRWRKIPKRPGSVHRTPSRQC
UniProt P41595, whole entry: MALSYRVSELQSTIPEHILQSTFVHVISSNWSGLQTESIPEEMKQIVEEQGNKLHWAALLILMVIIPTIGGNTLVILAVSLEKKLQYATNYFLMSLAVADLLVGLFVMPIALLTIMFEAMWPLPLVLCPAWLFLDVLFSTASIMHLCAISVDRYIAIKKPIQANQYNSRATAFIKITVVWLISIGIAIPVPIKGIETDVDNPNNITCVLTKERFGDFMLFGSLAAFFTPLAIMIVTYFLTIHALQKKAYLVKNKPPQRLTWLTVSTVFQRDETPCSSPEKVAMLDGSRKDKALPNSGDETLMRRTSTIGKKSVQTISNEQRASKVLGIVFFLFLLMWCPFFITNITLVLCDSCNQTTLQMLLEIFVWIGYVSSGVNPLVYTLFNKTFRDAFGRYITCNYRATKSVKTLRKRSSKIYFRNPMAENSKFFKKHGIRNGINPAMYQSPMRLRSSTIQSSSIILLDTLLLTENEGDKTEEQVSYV
UniProt P28335, 33-458: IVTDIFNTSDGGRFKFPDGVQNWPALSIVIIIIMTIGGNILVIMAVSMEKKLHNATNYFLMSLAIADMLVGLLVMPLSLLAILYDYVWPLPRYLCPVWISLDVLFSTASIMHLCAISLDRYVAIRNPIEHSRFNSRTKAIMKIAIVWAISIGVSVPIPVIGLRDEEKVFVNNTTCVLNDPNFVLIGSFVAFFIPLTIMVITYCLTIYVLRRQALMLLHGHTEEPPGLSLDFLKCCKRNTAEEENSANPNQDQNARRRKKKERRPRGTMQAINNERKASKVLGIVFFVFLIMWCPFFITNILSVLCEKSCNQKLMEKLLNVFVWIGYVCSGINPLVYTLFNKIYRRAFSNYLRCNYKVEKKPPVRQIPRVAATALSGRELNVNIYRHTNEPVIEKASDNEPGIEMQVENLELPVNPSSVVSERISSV

pIC50, pKi: −log10 of the molar value.

At Muscarinic M1, `CCNC(C)Cc1cccc(C(F)(F)F)c1` (racemic) [fenfluramine, (RS)—N-ethyl-1-[3-(trifluoromethyl)phenyl]propan-2-amine] gave a pIC50 of 4.89 and a pKi of 4.95. For the same molecule, the “inhibition of receptor binding (tracer)” value on Muscarinic M1 (test article 1×10^−6 and 1×10^−5 mol/L, rat cerebral cortex) was “significantly inhibit”.
Turning to `CCN[C@@H](C)Cc1cccc(C(F)(F)F)c1` [Dexfenfluramine], the negative logarithm of the IC50 (pIC50) is 5.02 at Muscarinic M1, 5.12 in experiment [1] and 5.40 in experiment [2]. Further, the pKi at Muscarinic M1 was 5.08; in experiment [1] it was 5.33; in experiment [2], 5.54.

For orientation: pIC50 means −log10 of the IC50, conventionally taken in molar units. Usually pKi stands for the Ki on a negative log10 scale, so that one unit is a factor of ten.

Values taken from patent publication US20220370381A1 (published 2022).
